Test: BBB permeation by parallel artificial membrane permeability assay (PAMPA)
Assay type: in vitro ADME

SMILES: NCCc1ccc(O)c(O)c1 [Dopamine, reference compound]
- Experimental Pe: 0.22 ± 0.01 ×10^−6 cm·s^−1
